{
  "sequences": {"note": "Amino acid sequences for entries named in this document (tags omitted). Residues count along the entry.", "UniProt P22303, 32-617 isoform P22303-2 limits assumed": "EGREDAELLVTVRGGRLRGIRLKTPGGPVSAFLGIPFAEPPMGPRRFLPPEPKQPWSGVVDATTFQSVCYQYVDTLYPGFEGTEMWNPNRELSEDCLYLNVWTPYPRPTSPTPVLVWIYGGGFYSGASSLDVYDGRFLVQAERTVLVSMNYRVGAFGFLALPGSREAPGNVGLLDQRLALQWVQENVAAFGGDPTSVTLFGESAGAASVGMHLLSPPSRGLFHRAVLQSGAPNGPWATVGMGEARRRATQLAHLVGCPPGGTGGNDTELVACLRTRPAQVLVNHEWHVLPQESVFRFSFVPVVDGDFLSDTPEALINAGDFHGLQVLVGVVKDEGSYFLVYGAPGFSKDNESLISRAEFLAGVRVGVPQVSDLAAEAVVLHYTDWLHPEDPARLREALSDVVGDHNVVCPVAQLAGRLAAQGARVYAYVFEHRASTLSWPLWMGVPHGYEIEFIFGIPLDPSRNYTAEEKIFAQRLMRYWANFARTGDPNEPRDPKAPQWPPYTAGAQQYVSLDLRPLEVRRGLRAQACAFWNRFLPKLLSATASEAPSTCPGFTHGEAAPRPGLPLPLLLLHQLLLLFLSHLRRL"},
  "source": "paper PMC9697446",
  "about": "(International Journal of Molecular Sciences, 2022)",
  "molecular_target": "T1, human erythrocyte AChE (Homo sapiens, UniProt P22303)",
  "T1 construct": "The esterase profile was estimated using the human erythrocyteAChE; purchased Sigma-Aldrich; host or cells: human erythrocytes",
  "type": "biochemical",
  "conditions": "IC50 ± SEM, n = 3",
  "experimental": "The esterase profile was estimated using the human erythrocyteAChE, the equine serum BChE, and the porcine liver CES.\nHuman erythrocyte AChE, equine serum BChE, porcine liver CES, acetylthiocholine iodide (ATCh), butyrylthiocholine iodide (BTCh), 5,5′-dithio-bis-(2-nitrobenzoic acid) (DTNB), 4-nitrophenol acetate (4-NPA), and BNPP were purchased from Sigma-Aldrich (St. Louis, MO, USA).\nAChE and BChE activities were measured via the Ellman method. The assay solution consisted of 0.1 M K/Na phosphate buffer pH 7.5, 25 °C with the addition of 0.33 mM DTNB, 0.02 unit/mL of AChE or BChE and 1 mM of substrate (ATCh or BTCh, respectively). The assays were carried out with a reagent blank containing all components (except AChE orBChE) in order to account for the non-enzymatic hydrolysis of the substrate. […]\nThe test compounds were dissolved in DMSO, and the incubation mixture contained 2% (v/v) of the solvent. Enzyme inhibition was first assessed at a single concentration of 20 µM for each compound after a 5 min incubation at 25 °C in three separate experiments. […] Measurements were performed with a FLUOStar Optima microplate reader (BMG Labtech, Ortenberg, Germany). […] The results were expressed as the mean ± SEM. The reaction rates in the presence and absence of the inhibitor were compared, and the percent of residual enzyme activity due to the presence of test compounds was calculated.",
  "data": [
    {"compound": "CN(C)c1ccc2nc3ccc(=[N+](C)C)cc-3sc2c1", "note": "[MB, Methylene blue, reference compound]", "values": [
      {"measurement": "IC50", "result": "1210 ± 90", "unit": "nM"}
    ]}
  ]
}
